Data published in patent US11214565B2, “Compound, compositions, and methods” (Denali Therapeutics Inc., priority 2015, dated 2022).
Like-named read-outs stand apart in the source and are kept apart here.

Amino acid sequences for entries named in this document (tags omitted).
UniProt Q5S007, whole entry G2019S: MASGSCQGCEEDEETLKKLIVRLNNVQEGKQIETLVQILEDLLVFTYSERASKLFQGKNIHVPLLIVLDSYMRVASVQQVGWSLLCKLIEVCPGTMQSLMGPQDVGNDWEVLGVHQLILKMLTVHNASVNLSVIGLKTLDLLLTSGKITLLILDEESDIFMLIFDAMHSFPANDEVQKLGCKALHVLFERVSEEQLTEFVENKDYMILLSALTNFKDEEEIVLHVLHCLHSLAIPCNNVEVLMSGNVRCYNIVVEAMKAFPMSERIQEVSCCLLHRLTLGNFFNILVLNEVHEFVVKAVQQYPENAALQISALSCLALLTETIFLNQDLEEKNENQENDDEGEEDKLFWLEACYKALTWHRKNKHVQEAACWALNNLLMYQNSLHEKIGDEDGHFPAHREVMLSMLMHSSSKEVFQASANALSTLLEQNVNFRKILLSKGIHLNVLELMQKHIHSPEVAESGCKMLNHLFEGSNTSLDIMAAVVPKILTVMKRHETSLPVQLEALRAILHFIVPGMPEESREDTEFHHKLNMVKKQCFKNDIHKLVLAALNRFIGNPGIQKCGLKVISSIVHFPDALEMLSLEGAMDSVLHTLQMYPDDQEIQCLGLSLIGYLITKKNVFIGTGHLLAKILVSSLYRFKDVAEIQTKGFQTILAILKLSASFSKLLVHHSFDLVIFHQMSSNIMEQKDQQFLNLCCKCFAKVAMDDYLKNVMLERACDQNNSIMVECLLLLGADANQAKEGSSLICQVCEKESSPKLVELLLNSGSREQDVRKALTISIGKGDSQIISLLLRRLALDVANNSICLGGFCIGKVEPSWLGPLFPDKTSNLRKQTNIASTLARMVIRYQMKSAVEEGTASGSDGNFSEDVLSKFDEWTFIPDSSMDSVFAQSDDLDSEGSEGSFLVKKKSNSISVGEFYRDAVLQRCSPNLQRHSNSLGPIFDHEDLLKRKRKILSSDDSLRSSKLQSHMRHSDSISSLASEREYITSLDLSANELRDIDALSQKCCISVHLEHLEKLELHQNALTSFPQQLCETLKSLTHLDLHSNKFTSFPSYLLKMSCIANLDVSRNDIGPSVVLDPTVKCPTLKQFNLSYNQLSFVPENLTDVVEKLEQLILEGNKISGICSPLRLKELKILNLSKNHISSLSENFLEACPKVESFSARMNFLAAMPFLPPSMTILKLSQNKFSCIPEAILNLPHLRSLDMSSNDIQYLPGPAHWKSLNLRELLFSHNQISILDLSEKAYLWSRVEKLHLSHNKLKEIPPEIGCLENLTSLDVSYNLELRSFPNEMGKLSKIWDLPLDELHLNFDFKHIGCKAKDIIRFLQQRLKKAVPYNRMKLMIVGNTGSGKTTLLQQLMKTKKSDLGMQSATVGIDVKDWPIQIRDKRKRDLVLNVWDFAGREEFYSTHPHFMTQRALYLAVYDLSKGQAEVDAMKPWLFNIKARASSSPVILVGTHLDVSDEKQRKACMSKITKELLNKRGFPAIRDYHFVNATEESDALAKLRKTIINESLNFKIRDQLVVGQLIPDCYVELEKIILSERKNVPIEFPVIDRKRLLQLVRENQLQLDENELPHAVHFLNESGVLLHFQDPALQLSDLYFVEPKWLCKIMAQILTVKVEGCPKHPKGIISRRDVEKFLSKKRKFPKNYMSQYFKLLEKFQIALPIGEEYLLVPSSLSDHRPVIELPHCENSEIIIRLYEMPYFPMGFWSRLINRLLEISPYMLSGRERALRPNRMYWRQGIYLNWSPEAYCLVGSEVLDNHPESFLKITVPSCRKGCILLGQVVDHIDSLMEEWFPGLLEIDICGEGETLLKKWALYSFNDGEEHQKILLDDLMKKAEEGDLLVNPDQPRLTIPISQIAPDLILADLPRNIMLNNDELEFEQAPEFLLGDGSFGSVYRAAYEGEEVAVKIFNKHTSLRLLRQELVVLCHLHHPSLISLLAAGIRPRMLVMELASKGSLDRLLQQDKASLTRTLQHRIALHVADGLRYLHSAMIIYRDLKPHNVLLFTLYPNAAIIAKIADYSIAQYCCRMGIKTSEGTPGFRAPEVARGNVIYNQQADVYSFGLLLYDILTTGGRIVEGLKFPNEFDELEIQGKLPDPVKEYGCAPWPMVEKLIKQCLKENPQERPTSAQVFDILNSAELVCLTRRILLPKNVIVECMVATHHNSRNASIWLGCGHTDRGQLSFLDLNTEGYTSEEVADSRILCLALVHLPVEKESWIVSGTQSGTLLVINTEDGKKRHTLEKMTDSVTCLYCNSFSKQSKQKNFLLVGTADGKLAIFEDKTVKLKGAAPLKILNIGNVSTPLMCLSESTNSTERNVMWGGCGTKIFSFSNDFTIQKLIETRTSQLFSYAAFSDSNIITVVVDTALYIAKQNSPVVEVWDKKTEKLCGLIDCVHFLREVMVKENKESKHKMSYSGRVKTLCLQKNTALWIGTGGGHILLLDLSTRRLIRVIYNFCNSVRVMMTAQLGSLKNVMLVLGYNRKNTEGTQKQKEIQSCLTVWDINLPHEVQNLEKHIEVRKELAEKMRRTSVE

Molecular target: LRRK2 G2019S enzyme (Homo sapiens (Human), UniProt Q5S007, G2019S)
Assay: LRRK2 G2019S TR-FRET biochemical kinase assay (LRRKtide substrate)
Conditions: read-out: LRRK2 G2019S IC50, 5 nM LRRK2, 134 μM ATP, 60 minute reaction, 23° C.

Q: For `CNc1nc(Nc2cn(C3CCn4cncc43)nc2C)ncc1C(F)(F)F` (single isomer, unassigned), which IC50 (Table D-4) is on record?
A: 0.03 to 0.06 µM

Q: How did the IC50 (Table D-4) turn out when `CCOc1nc(Nc2cn(C3CCn4ccnc43)nc2C)ncc1C(F)(F)F` (single isomer, unassigned) was run?
A: < 0.03 µM

Q: With `CCNc1nc(Nc2cnn(C(C)COC(F)F)c2C)ncc1C(F)(F)F` (single isomer, unassigned) as the molecule, how does the IC50 (Table D-4) read?
A: < 0.03 µM

Q: Which IC50 (Table D-4) does the source give for `CCNc1nc(Nc2cn(C3CCn4ccnc43)nc2Cl)ncc1C(F)(F)F` (single isomer, unassigned) here?
A: < 0.03 µM

Q: Which IC50 (Table A-2) does the source give for `Cc1c(Nc2ncc(C(F)(F)F)c(C3CC3)n2)cnn1C1CCNC1=O` (single isomer, unassigned) here?
A: > 0.06 µM

Q: How did the IC50 (Table C-2) turn out when `Cc1nn(C(F)F)cc1Nc1nc(C2CC2)c2nc[nH]c2n1` was run?
A: 0.05 to 0.1 µM
